Data taken from patent US20050203013A1, “Methods for inhibiting vascular permeability” (priority 2002, published 2005).

Key:
[1] = test system: VEGF induced vessel permeability; assay: Miles assay (Example 2), VEGF165 challenge; assay type: in vivo, mice
Experimental: One of the problems with angiogenesis-dependent diseases is increased vessel permeability (due to high levels of VPF) which results in edema and loss of proteins. A decrease in vessel permeability is beneficial in those diseases. We have found, using the Miles assay ([…], et al., Cancer Res, 56:172-181 (1996)), that free and bound TNP-470 block permeability. Briefly, a dye, Evans Blue (1% in PBS), was injected i.v. to anesthesized mice. After 10 min, human recombinant VEGF165 (50 ng/50 μl) was injected intradermally into the back skin. Leakage of protein-bound dye was detected as blue spots on the underside of the back skin surrounding the injection site. After 20 min mice were euthanized. Then, the skin was excised, left in formamide for 5 days to be extracted and the solution read at 620 nm. Putative angiogenesis inhibitors such as free and conjugated TNP-470 were injected daily 3 days (30 mg/kg/day) prior to the VEGF challenge. The same was repeated on tumor-bearing mice to evaluate the effect of angiogenesis inhibitors on tumor vessel permeability.

[2] = test system: skin vessel permeability; assay: Miles vascular permeability assay (Example 3); assay type: in vivo, SCID mice; conditions: VPF/VEGF intradermal
Experimental: SCID mice were injected subcutaneously (s.c.) with TNP-470 or HPMA copolymer-TNP-470 (30 mg/Kg TNP-equiv.) for three days, with Y27632 (50 nM s.c.) for 11 days, with angiostatin (200 mg/kg/day s.c.) for five days, or with saline (250 μl s.c.) for 5 days (n=12) prior to performing the Miles assay ([…] et al., 1996; Miles and Miles, 1952; Streit et al., 2000). Briefly, Evan's blue dye (100 μl of a 1% solution in 0.9% NaCl) was injected intravenously (i.v.) into mice. After 10 minutes, 50 μl of human VEGF165 (1 ng/μl), PAF (100 μM), CNF-1 (100 ng), histamine (1.2 μg/ml) or PBS (50 ul) were injected intradermally into the pre-shaved back skin. After 20 minutes, the animals were euthanized and an area of skin that included the blue spot resulting from leakage of the dye was removed. Evan's blue dye was extracted from the skin by incubation with formamide for 5 days at room temperature, and the absorbance of extracted dye was measured at 620 nm using a spectrophotometer. The unpaired Student t test was used for statistical analysis.

Substance: Herceptin: Anti-Erb B-2 antibody (Herceptin) from Genentech; indirect angiogenesis inhibitor
- effect on VEGF induced vessel permeability [1]: no effect
- effect on VPF/VEGF-induced vessel permeability [2]: no significant effect
